Test system: VEGFR2 gene expression in hHSC
Experiment: Gene expression (quantitative RT-PCR) in TGFβ1-activated hHSC
Type: cell-based, human
Conditions: 3 μM; TGFβ1 1 ng/mL, 24 hours, serum free
Protocol: The human primary hepatic stellate cells (hHSC) (ScienCell) were cultured under standard conditions, as described above. For experiments to determine gene expression patterns, hHSC were plated at a density of 1.4×10^5 cells/well into 12-well plates and were cultured overnight. […] Cells were treated with compounds in addition to TGFβ1 (1 ng/mL) in a serum-free and SteCGS-free medium for 24 hours.
Total RNA was isolated using RNeasy® Mini Kit (Qiagen) following manufacturer's instructions.
Quantitative PCR was then carried out using the MyiQ Single-Color Real-Time PCR Detection or the iCycler iQ Multiplex Real-Time PCR Detection System (both systems from Biorad). Briefly, PCR reactions were performed in 96 Well plates on 5 μL of 5× diluted reverse transcription mix using the iQ SYBR Green Supermix kit. The experimental conditions were: 25 μL of volume reaction, 3 mM of MgCl2, and 0.5 μL each of reverse and forward primers (10 pMol).
Expression levels were normalized using the expression of 36B4 gene as reference.
Expression levels were determined using the standard curve equation for both the housekeeping gene and the target gene (taking into account the specific PCR efficiency of each target gene).
The induction factor vs TGFβ1 was determined as follow: […]

## CNC(=O)c1cc(Oc2ccc(NC(=O)Nc3ccc(Cl)c(C(F)(F)F)c3)cc2)ccn1 [Sorafenib]
  Emax, reduction in VEGFR2 gene expression vs hHSC treated with TGFβ1 alone: −73%

Reference: patent US10792277B2, “Methods of treatment of fibrosis and cancers” (GENFIT, priority 2013, dated 2020)
